According to patent US11149062B2, “HDAC inhibitors and methods of treatment using the same” (UWM Research Foundation, Inc., priority 2015, dated 2021):

Biological target: T1, Recombinant human HDAC8 (Homo sapiens, UniProt Q9BY41)
T1 construct: purchased BPS Bioscience Inc
T1 sequence (Q9BY41 1-377): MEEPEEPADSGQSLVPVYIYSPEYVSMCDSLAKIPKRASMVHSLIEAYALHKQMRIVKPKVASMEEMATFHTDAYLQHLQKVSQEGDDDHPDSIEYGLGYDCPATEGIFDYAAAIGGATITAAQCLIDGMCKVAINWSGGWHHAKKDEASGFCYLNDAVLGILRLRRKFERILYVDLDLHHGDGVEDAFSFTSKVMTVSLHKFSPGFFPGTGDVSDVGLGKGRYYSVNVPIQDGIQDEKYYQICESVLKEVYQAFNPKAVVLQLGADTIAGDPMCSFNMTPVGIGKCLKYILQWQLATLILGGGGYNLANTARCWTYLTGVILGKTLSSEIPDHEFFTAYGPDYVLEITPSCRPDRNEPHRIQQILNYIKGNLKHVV
Test: HDAC-Glo I/II assay, HDAC8
Type: biochemical

Molecule `O=C(CCCCCCC(=O)Nc1ccccc1)NO` [SAHA, suberoyl anilide hydroxamic acid, reference compound] has an IC50 of 7.04 µM.
